Structures are written as SMILES.

From ChEMBL document CHEMBL1146669, “The development of potent non-peptidic PTP-1B inhibitors” (Bioorg Med Chem Lett, 2004) come the findings set out here.

The target of this assay is T1, Tyrosine-protein phosphatase non-receptor type 1 (Homo sapiens, UniProt P18031).
T1 sequence (P18031 whole entry): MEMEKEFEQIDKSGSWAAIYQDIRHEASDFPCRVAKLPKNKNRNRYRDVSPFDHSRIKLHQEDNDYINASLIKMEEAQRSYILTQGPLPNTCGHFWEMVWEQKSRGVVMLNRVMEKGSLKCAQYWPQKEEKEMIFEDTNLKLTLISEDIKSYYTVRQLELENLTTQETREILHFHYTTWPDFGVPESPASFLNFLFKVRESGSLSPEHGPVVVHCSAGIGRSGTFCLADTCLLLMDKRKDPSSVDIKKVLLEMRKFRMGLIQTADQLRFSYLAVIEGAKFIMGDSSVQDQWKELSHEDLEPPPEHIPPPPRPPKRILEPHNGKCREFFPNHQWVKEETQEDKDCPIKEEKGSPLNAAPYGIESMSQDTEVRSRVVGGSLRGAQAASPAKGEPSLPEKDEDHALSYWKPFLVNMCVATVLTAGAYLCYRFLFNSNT
The assay can be described thus: In vitro inhibitory activity against protein tyrosine phosphatase 1B (PTP1B) was determined in fluorescein diphosphate (FDP) assay.

`O=C(c1ccccc1)C(Cc1ccc(C(F)(F)P(=O)(O)O)c(Br)c1)c1ccccc1` (stereo unspecified) yielded an IC50 of 120 nM.
